Laboratory results: patent US20220324959A1 (Janssen / Centocor, published 2022)

By UniProt entry, the sequences of proteins in these tests, tags left out. Residues count along the entry.
UniProt P01375, 77-233 limits assumed: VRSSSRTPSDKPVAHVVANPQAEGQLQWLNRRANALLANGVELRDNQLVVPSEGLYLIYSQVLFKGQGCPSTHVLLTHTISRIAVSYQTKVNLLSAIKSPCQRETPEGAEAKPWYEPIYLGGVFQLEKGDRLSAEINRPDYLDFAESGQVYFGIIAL

Biological target: T1, recombinant human TNFα (human, UniProt P01375 77-233, 125I label in the receptor blocking assay)
T1 construct: also called huTNFα; tumor necrosis factor alpha
Test: competition radioligand assay: cA2 spiked into anti-IL-18 control supernatant, preincubated with 5 ng/ml 125I-TNFα, then binding of 125I-TNFα to plate-coated p55-sf2 (TNF receptor/IgG fusion) counted as cpm bound

B1: chimeric antibody cA2 (antibody, V domains shown)
VH: EVKLEESGGGLVQPGGSMKLSCVASGFIFSNHWMNWVRQSPEKGLEWVAEIRSKSINSATHYAESVKGRFTISRDDSKSAVYLQMTDLRTEDTGVYYCSRNYYGSTYDYWGQGTTLTVS
VL: DILLTQSPAILSVSPGERVSFSCRASQFVGSSIHWYQQRTNGSPRLLIKYASESMSGIPSRFSGSGSGTDFTLSINTVESEDIADYYCQQSHSWPFTFGSGTNLEVK
IC50 (read off the curve): ~10 ng/mL
